Laboratory results: patent US8853146B2, “Hapten compounds and compositions and uses thereof” (The Board of Trustees of the University of Arkansas, priority 2007, dated 2014)

Experiments:
mAb4G9 = experiment: RIA cross-reactivity profile, inhibition of [3H]-(+)METH binding to mAb4G9; parameters: species or system mouse; conditions: RIA IC50 value for METH/RIA IC50 value for test ligand
rats = experiment: (+)METH brain concentrations in rat overdose and mAb pretreatment models; type: in vivo; conditions: 1 mg/kg iv, without mAb
Procedure: The overdose model was designed to mimic a drug abuser taking a high iv (+)METH dose and treated with (+)METH mAb in the emergency room. In this model, rats received 1 mg/kg (+)METH (iv) followed 30 min later by an anti-(+)METH mAb dose. The mAb pretreatment model was designed to mimic an abuser in drug treatment administered an anti-(+)METH mAb medication at the start of behavioral modification therapy who relapses to (+)METH use. In this model, rats were pretreated with anti-(+)METH mAb6H4 and received a 1 mg/kg iv (+)METH dose the following day. This dose (without mAb) produced about 2.5 hrs of locomotor effects. Rats (3/time point) were sacrificed at varied times after (+)METH administration to determine (+)METH brain concentrations.

mAb6H4 = experiment: RIA cross-reactivity profile, inhibition of [3H]-(+)METH binding to mAb6H4; parameters: species or system mouse; conditions: RIA IC50 value for METH/RIA IC50 value for test ligand
mAb6H8 = experiment: RIA cross-reactivity profile, inhibition of [3H]-(+)METH binding to mAb6H8; parameters: species or system mouse; conditions: RIA IC50 value for METH/RIA IC50 value for test ligand

## (+)-methamphetamine [(+)METH]
mAb4G9
  Antibody Specificity (Relative Potency to METH), mAb4G9: 1.00
rats
  duration of locomotor effects: about 2.5 hrs
mAb6H4
  Antibody Specificity (Relative Potency to METH), mAb6H4: 1.00
mAb6H8
  Antibody Specificity (Relative Potency to METH), mAb6H8: 1.00
